From patent US20030138434A1, “Agents for enhancing the immune response” (priority 2001, published 2003)

Test system: HCG
Assay: Serum antibody to HCG by ELISA after IP immunization (Example 2)
Assay type: in vivo, Balb/c mice
Conditions: 1 ug HCG per boost IP, day 33 pooled test bleed, 3× background criteria
Description: The HCG was obtained from BioPacific of 4240 Hollis Street, Emeryville Calif. 94608 and was provided as a lyophilized powder from a 50 mM ammonium carbonate solution.
Several laboratories have experience with conjugating substances to alpha 2-M. Linkers for general protein-protein coupling may also be used and are available from Pierce Chemicals with easy to follow instructions. Synergy Vaccines Inc. is an “Incubator Company” located at Becton Dickinson's RTP, NC facility and was selected to carry out the conjugation step.
All immunizations were given intraperitoneal (IP) at two-week intervals. Again, the IP route was selected thereby creating an option for later harvesting of splenetic B-Cells and generation of MABs for individual antibody analysis. Each animal received 1 ug of HCG per boost in 200 ul of Hanks Buffered Saline. Serum samples were taken from each animal in a test group and pooled for titration. […]
9. Stop the reaction with 50 ul of 4.5 molar sulfuuric acid and read at 492 nm with a Titertek plate reader for final record.

HCG: purified protein preparation of human chorionic gonadotropin, immunogen alone
serum activity toward coated HCG antigen, in words: could not be called positive at the 1:3,333 dilution
